We go through eight compounds from patent US20260184715A1, “NOVEL PYRROLO[1,2-d][1,2,4] TRIAZINONE DERIVATIVES AS NEGATIVE ALLOSTERIC MODULATORS OF MGLU7 RECEPTORS” (Neurosterix Pharma Sarl., priority 2022, published 2026).

Amino acid sequences for entries named in this document (tags omitted). Residues count along the entry.
UniProt Q14831, 35-922 isoform 2 limits assumed: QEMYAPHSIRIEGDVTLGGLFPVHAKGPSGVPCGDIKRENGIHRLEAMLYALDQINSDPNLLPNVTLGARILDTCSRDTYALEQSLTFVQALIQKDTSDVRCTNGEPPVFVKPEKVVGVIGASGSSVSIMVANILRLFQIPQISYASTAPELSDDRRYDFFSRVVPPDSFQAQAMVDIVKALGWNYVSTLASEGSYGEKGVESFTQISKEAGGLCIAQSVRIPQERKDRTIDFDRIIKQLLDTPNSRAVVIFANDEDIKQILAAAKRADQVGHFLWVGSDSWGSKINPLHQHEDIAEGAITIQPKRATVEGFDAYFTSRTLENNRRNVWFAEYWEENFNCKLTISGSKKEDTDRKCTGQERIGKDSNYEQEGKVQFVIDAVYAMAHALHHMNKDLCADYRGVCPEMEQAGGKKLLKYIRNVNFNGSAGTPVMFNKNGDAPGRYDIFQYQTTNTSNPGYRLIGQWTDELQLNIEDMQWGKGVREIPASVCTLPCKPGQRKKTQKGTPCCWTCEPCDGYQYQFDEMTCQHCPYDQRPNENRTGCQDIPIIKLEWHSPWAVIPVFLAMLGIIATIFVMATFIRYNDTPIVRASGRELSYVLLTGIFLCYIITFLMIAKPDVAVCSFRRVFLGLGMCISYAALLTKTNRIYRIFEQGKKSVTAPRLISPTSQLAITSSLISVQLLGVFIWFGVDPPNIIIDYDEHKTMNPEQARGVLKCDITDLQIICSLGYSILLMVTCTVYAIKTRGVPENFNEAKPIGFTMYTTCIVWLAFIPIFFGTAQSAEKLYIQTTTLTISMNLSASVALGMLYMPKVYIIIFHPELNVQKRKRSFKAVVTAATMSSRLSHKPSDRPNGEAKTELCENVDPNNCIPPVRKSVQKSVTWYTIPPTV

The experiment has as its target human metabotropic glutamate 7 receptor (hmGlu7) (Homo sapiens, UniProt Q14831). Briefly: mGlu7 assay on HEK-expressing human mGlu7: fluorescent cell based-Ca2+ mobilization assay (FLIPR), inhibition of EC80 L-AP4 response. The settings on record: read-out: Ca^2+ Flux (mean IC50); HEK-293 cells expressing hmGlu7, EC80 L-AP4; mean of at least three independent experiments in duplicate. The source says: mGlu7 Assay on HEK-Expressing Human mGLU7
The cDNA encoding the human metabotropic glutamate 7 receptor (hmGlu7), (accession number NM_181874.2, NCBI Nucleotide database browser), was subcloned into an expression vector containing also the hygromycin resistance gene. In parallel, the cDNA encoding a G protein allowing redirection of the activation signal to intracellular calcium flux was subcloned into a different expression vector containing also the Puromycin resistance gene. Transfection of both these vectors into HEK293 cells with PolyFect reagent (Qiagen) according to supplier's protocol, and hygromycin and puromycin treatment allowed selection of antibiotic resistant cells which had integrated stably one or more copies of the plasmids. Positive cellular clones expressing hmGlu7 were identified in a functional assay measuring changes in calcium fluxes in response to glutamate and L-AP4 or known mGlu7 orthosteric antagonists.
HEK-293 cells expressing hmGlu7 were maintained in media containing DMEM, Fetal Bovine Serum (10%), GlutaMAX™ (2 mM), penicillin (100 units/mL), streptomycin (100 μg/mL), geneticin (100 μg/mL) and hygromycin-B (40 μg/mL) and puromycin (1 μg/mL) at 37° C. with 5% CO2 in a humidified atmosphere.
Human mGlu7 HEK-293 cells were plated out 24 hours prior to a fluorescent cell-based calcium mobilization assay using FLIPR^384 assay (Molecular Device, Sunnyvale, CA, USA) in black-walled, clear-bottomed, poly-L-ornithine-coated 384-well plates at a density of 25,000 cells/well in a glutamine/glutamate free DMEM medium containing fetal bovine serum (10%), penicillin (100 units/mL), streptomycin (100 μg/mL) and doxycyline (1 μg/ml) at 37° C. with 5% CO2 in a humidified atmosphere.
On the day of the assay, the medium was aspirated and the cells were loaded with a 3 μM solution of Fluo4-AM (LuBioScience, Lucerne, Switzerland) in 0.03% pluronic acid. After 1 hour at 37° C./5% CO2, the non incorporated dye was removed by washing cell plate with the assay buffer. All assays were performed in a pH 7.4 buffered-Solution containing 20 mM HEPES, 143 mM NaCl, 6 mM KCl, 1 mM MgSO4, 1 mM CaCl2, 0.125 mM sulfinpyrazone and 0.1% glucose.
After 10 s of basal fluorescence recording, various concentrations of the compounds of the invention were added to the cells. Changes in fluorescence levels were first monitored for 180 s in order to detect any agonist activity of the compounds. Then the cells were stimulated by an EC80 L-AP4 concentration for an additional 110 s in order to measure inhibiting activities of the compounds of the invention. EC80 L-AP4 concentration is the concentration giving 80% of the maximal glutamate response.
The concentration-response curves of L-AP4 or representative compounds of the present invention were generated using the Prism GraphPad software (Graph Pad Inc, San Diego, USA). The curves were fitted to a four-parameter logistic equation:
(Y=Bottom+(Top−Bottom)/(1+10^((Log IC50−X)*Hill Slope)
allowing determination of IC50 values.
The Table 3 below represents the mean IC50 obtained from at least three independent experiments of selected molecules performed in duplicate.
A general note: A change in cytosolic calcium serves as a functional read-out for many receptors and channels.

With `Cc1c(-c2cccc(OC3CC3)c2)c(C)n2c(=O)n(-c3ccc(C(C)(C)O)cn3)ncc12`, the IC50 lay in the range of 100 to 1000 nM.
For the compound `COc1cnc(-n2ncc3c(C)c(-c4cccc(OC5CC5)c4)c(C)n3c2=O)nc1`, the IC50 is 100 to 1000 nM.
In the case of `Cc1c(-c2cccc(OC3CC3)c2)c(C)n2c(=O)n(-c3ncc(OC(F)F)cn3)ncc12`, the IC50 lay within 100 to 1000 nM.
Turning to `Cc1c(-c2cccc(OC3CC3)c2)c(C)n2c(=O)n(-c3ncc(OCCN(C)C)cn3)ncc12`, the IC50 fell in the range of 100 to 1000 nM.
For `COc1cccc(-c2c(C)c3cnn(-c4ncccn4)c(=O)n3c2C)c1` the value was below 100 nM; for `Cc1c(-c2cccc(OC3CC3)c2)c(C)n2c(=O)n(-c3ccc(F)cn3)ncc12`, 100 to 1000 nM; for `Cc1ccc(OC2CC2)cc1-c1cc2cnn(-c3ncccn3)c(=O)n2c1C`, below 100 nM.
As for `Cc1c(-c2cccc(OC3CC3)c2F)cc2cnn(-c3ncccn3)c(=O)n12`, the IC50 was below 100 nM.

The term IC50 denotes the concentration that gives 50% inhibition.
